These results are taken from paper PMC9572811, “Synthesis of Novel Benzimidazole-Based Thiazole Derivatives as Multipotent Inhibitors of α-Amylase and α-Glucosidase: In Vitro Evaluation along with Molecular Docking Study” (Molecules, 2022).

Chains of the proteins cited; added tags and fusions are not shown. Residues count along the entry.
UniProt P53341, whole entry: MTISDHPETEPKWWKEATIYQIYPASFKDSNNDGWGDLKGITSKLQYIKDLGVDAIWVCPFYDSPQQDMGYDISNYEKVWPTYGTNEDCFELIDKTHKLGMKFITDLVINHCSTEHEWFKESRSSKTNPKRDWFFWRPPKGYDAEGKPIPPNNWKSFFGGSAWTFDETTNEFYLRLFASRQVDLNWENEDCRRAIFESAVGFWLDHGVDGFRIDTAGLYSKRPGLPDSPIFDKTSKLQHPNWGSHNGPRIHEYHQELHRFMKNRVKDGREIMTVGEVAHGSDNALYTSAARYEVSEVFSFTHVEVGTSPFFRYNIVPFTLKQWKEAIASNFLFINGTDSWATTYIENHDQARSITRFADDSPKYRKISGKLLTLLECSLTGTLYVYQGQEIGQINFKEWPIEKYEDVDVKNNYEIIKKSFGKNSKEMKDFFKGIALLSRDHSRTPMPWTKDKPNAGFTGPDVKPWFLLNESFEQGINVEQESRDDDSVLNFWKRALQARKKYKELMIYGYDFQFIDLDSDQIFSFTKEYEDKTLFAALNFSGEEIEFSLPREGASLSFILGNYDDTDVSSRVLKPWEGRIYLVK
UniProt P00690, 16-511 limits assumed: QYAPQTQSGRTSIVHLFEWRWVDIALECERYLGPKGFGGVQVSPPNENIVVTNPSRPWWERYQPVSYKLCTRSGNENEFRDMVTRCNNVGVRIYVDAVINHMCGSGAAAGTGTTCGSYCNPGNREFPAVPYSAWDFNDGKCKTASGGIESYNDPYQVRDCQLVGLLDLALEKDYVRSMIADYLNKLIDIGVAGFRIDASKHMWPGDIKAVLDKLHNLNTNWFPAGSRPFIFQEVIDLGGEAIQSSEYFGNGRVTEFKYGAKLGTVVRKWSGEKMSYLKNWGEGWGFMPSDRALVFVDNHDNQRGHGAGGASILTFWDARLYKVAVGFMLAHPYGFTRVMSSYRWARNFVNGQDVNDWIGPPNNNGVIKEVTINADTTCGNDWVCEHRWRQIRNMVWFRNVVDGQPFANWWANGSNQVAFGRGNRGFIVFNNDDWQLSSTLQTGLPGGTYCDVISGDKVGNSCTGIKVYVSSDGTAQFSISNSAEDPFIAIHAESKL

pIC50: −log10 of the molar value.

Test [1] has as its target α-glucosidase (Saccharomyces cerevisiae, UniProt P53341). The test is described as follows: α-glucosidase inhibition assay. It is filed as biochemical. The note with it: read-out: α-Glucosidase IC50; in vitro; p-nitrophenyl glucopyranoside substrate; mean ± SEM, n=3; acarbose as standard.
The target of test [2] is α-amylase (Sus scrofa, UniProt P00690). Kind of test: α-amylase inhibition assay. The note with it: read-out: α-Amylase IC50; in vitro; porcine pancreatic α-amylase, starch substrate; acarbose as standard.

In the case of `O=[N+]([O-])c1ccc(/C(CSc2nc3ccccc3[nH]2)=N\Nc2nc(-c3cccc([N+](=O)[O-])c3)cs2)cc1`, the pIC50 – broadly, the IC50 on a negative log10 scale, so that one unit is a factor of ten – is 4.53 in test [1] and 4.55 in test [2].
The like results for `O=[N+]([O-])c1ccc(/C(CSc2nc3ccccc3[nH]2)=N\Nc2nc(-c3cccc(Br)c3)cs2)cc1` were, in that order, 4.44 and 4.46.
For `O=[N+]([O-])c1ccc(/C(CSc2nc3ccccc3[nH]2)=N\Nc2nc(-c3ccc(Br)cc3)cs2)cc1` the same measures were 4.59 and 4.73.
As to `O=[N+]([O-])c1ccc(/C(CSc2nc3ccccc3[nH]2)=N\Nc2nc(-c3ccc(Cl)cc3)cs2)cc1`, the pIC50 in test [1] was 4.76; in test [2] it was 4.79.
The like results for `O=[N+]([O-])c1ccc(/C(CSc2nc3ccccc3[nH]2)=N\Nc2nc(-c3ccc(O)cc3)cs2)cc1` were, in that order, 5.37 and 5.44.
For `O=[N+]([O-])c1ccc(/C(CSc2nc3ccccc3[nH]2)=N\Nc2nc(-c3cccc(F)c3)cs2)cc1` the same measures were 5.25 and 5.39.
For `Cc1ccc(-c2csc(N/N=C(/CSc3nc4ccccc4[nH]3)c3ccc([N+](=O)[O-])cc3)n2)cc1` the same measures were 4.59 and 4.61.
As to `O=[N+]([O-])c1ccc(/C(CSc2nc3ccccc3[nH]2)=N\Nc2nc(-c3ccc([N+](=O)[O-])cc3)cs2)cc1`, the pIC50 in test [1] is 4.71; in test [2] it was 4.79.
